Each structure is given as a SMILES string. A value given as a limit tells only on which side of the number the result lay.

Protein sequences, listed by entry. Tags and fused reporters are not part of them.
UniProt P14902, whole entry: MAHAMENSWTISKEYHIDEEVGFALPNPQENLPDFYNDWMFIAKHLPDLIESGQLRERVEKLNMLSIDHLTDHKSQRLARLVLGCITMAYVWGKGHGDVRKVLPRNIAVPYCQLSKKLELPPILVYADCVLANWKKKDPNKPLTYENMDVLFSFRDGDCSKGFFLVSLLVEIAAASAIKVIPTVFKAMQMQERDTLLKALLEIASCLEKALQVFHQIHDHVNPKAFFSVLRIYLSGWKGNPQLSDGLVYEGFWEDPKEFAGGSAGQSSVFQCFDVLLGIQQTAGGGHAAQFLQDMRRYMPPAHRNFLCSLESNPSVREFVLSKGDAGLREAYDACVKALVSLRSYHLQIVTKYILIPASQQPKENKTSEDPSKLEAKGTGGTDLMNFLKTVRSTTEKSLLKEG

This test concerns the target human IDO1 (Homo sapiens, UniProt P14902). As to the kind of experiment: IDO inhibition assay in HEK293 cells stably expressing human IDO1 (kynurenine, Ehrlich reagent). The note with it: read-out: HEK Human IDO-1 Bio Activity, 20 hours incubation.

In the case of `CCC(NC(=O)c1ccc(Cl)cc1)[C@H]1CC[C@@H](Oc2cc(C(F)(F)F)nc3ccccc23)CC1` (relative stereo), the IC50 was < 50 nM.

(Values after patent publication US10206893B2, “Immunoregulatory agents” (Flexus Biosciences, Inc., priority 2014, dated 2019).)
